Results from US7404945B2, “Method of evaluating pharmacological effects of medicine” (Tokyo Gas Company Limited, priority 2002, dated 2008).
Where a name gives a salt, the structure may show the parent alone.

Sequences of proteins named here, by UniProt entry; tags and fusion partners are left off.
UniProt P31390, whole entry: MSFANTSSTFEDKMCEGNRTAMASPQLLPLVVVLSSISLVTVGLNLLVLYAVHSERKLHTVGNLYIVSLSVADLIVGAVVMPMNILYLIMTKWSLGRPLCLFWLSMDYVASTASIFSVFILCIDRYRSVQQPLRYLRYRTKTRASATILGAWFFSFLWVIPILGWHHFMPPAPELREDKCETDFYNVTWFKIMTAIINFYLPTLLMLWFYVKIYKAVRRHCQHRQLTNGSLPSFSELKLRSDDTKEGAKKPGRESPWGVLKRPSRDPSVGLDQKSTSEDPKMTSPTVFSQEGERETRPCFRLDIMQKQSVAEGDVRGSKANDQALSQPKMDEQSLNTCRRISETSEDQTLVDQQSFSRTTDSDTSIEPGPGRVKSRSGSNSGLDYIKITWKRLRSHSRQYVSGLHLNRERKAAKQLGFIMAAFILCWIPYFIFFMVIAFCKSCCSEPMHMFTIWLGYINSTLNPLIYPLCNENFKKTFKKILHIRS

Biological target: H1 receptor (Rattus norvegicus, UniProt P31390)
Details: rats, chlorpheniramine maleate 40 mg/kg i.p. twice; [1,2-13C]ornithine 10 mg/kg femoral vein 1 hour 30 minutes after the last administration; n=2

SMILES: CN(C)CCC(c1ccc(Cl)cc1)c1ccccn1 (stereo not shown) [chlorpheniramine maleate]
- Δ13C 10 minutes after the administration: 84.7±1.9 ‰
